Test results published in publication PMC10724690, “Deciphering specificity and cross-reactivity in tachykinin NK1 and NK2 receptors” (The Journal of Biological Chemistry, 2023).

Amino acid sequences for entries named in this document (tags omitted).
UniProt P21452, whole entry: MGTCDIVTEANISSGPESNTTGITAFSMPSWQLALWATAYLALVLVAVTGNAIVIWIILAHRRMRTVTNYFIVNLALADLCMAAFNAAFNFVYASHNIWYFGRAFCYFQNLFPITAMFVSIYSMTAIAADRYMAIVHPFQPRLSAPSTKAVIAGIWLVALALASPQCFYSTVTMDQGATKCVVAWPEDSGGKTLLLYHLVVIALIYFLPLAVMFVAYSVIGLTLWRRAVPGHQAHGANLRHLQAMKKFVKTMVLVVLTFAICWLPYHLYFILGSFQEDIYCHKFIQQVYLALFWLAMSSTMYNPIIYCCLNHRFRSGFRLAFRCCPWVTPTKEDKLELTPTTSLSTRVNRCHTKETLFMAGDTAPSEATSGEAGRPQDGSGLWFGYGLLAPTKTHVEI
UniProt P21452, whole entry K180L: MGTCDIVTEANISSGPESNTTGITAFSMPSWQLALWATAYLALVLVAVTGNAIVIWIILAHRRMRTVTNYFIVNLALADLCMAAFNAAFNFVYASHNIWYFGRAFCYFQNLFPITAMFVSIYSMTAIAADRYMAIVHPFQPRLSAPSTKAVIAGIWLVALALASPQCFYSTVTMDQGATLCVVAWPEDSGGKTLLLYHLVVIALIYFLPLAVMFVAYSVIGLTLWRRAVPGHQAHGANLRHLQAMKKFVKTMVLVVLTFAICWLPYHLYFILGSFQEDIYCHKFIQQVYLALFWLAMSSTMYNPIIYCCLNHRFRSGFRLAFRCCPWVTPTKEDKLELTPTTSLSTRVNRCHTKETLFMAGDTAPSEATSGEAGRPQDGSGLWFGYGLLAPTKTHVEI

What was measured:
Format in all cases: cell-based
NK2R [1] = biological target: T1, NK2R (Homo sapiens, UniProt P21452); assay: IP3 (IP accumulation) assay, wildtype NK2R
T1 construct: host or cells: COS7
Description: COS7 cells (derived from African green monkey kidney fibroblast and originally bought from ThermoFisher) were maintained in Dulbecco´s Modified Eagle´s Medium 1885 with GlutaMAX supplemented with 10% fetal bovine serum (Sigma-Aldrich), 100 units/ml penicillin and 100 μg/ml streptomycin at 37 °C with 10% CO2. COS7 cells were plated in either clear-, white-, or white with clear bottom 96-well plates that were coated with poly-D-lysine (Sigma-Aldrich) 30 min prior to cell seeding (20.000 cells/well). The following day plates were transiently transfected using calcium precipitation with 200 ng/well DNA in a culture medium with the addition of 100 μM (final concentration) Chloroquine. Transfection was stopped 5 h later with the addition of a fresh maintenance medium. Fig. […] COS7 cells seeded in clear 96-well plates were incubated with 0.5 μCi/ml myo [3H]inositol (PerkinElmer) in 100 μl growth medium over night following the transfection. The subsequent day cells were washed twice with 200 μl/well HBSS (GIBCO, Life Technologies) and pre-incubated for 5 min at 37 °C with 100 μl/well HBSS buffer supplemented with 10 mM LiCl. […] Measurements (scintillation) were recorded on a Microbeta (PerkinElmer) after a 4 h delay and determinations were made in duplicates. All dose-response curves have been calculated using Prism 10 software (GraphPad Software) non-linear regression with four parameters. […]

NK2R [2] = biological target: T1, NK2R; assay: BRET-based cAMP assay, wildtype NK2R
Description: (§1) COS7 cells (derived from African green monkey kidney fibroblast and originally bought from ThermoFisher) were maintained in Dulbecco´s Modified Eagle´s Medium 1885 with GlutaMAX supplemented with 10% fetal bovine serum (Sigma-Aldrich), 100 units/ml penicillin and 100 μg/ml streptomycin at 37 °C with 10% CO2. COS7 cells were plated in either clear-, white-, or white with clear bottom 96-well plates that were coated with poly-D-lysine (Sigma-Aldrich) 30 min prior to cell seeding (20.000 cells/well). The following day plates were transiently transfected using calcium precipitation with 200 ng/well DNA in a culture medium with the addition of 100 μM (final concentration) Chloroquine. Transfection was stopped 5 h later with the addition of a fresh maintenance medium.
(§2) The intracellular level of cAMP was monitored in real-time using bioluminescence resonance energy transfer (BRET). […]
(§3) On the day of the assay, white 96-well plates with COS7 cells were washed twice with 100 μl/well HBSS (GIBCO, Life Technologies) and preincubated for 30 min at 37 °C with 85 μl HBSS. […] The BRET signal was calculated as the ratio of emission intensity at 535 nm (citrine) to the emission intensity at 475 nm (luciferase). […]
(§4) All dose-response curves have been calculated using Prism 10 software (GraphPad Software) non-linear regression with four parameters. […]

NK2R-K180L = biological target: T2, NK2R-K180L (Homo sapiens, UniProt P21452, K180L); assay: BRET-based cAMP assay, NK2R-K180L; conditions: COS-7, Fig s6 b (SP activation, Figure S5b)
T2 construct: host or cells: COS7
Description: as §1, §2, §3, §4

Emax (NK2R [1]; COS-7, Fig 5a, IP3 assay, NK2R in COS7 cells): 45.2% | Emax (NK2R [1]; COS-7, Fig s6 a (SP activation, Figure S5a), IP3 activation assay, NK2R WT): 100% | Emax (NK2R [2]; COS-7, Fig 5b, NK2R in COS7 cells, read-out: Emax): 24.3% | Emax (NK2R [2]; Fig s6 b (SP activation, Figure S5b), NK2R WT): 24,32 | Emax (NK2R-K180L): 10.7%
Structure (SMILES): CSCC[C@H](NC(=O)[C@H](CC(C)C)NC(=O)CNC(=O)[C@H](Cc1ccccc1)NC(=O)[C@H](Cc1ccccc1)NC(=O)[C@H](CCC(N)=O)NC(=O)[C@H](CCC(N)=O)NC(=O)[C@@H]1CCCN1C(=O)[C@H](CCCCN)NC(=O)[C@@H]1CCCN1C(=O)[C@@H](N)CCCNC(=N)N)C(N)=O [SP, substance P]
